Our source for the inhibition values is PubChem BioAssay AID694 (Emory University Molecular Libraries Screening Center, 2007).

By UniProt entry, the sequences of proteins in these tests, tags left out.
UniProt P03372, whole entry, looked up: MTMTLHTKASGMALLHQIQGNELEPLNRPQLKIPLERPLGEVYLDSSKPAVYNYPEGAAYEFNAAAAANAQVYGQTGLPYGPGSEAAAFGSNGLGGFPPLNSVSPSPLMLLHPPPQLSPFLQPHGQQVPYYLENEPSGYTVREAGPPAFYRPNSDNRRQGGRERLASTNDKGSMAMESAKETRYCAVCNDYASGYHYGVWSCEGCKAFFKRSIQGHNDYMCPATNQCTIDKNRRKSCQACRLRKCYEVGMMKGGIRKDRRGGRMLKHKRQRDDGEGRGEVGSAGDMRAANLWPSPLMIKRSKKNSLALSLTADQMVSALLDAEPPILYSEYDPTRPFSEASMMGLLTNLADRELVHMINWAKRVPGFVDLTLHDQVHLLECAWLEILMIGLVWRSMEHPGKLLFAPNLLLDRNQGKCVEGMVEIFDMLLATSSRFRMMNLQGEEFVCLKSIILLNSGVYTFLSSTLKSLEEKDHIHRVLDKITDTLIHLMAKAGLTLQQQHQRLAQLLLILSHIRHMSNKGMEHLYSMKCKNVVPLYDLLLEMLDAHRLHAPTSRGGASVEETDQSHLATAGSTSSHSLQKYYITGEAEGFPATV

Values joined by “and” are separate entries in the source; they are usually repeats but may differ in a detail not shown here. Equal values may be shown once. The entries are a selection whose mix differs from that of the whole data set. Active and inactive are the calls of the source. How the calls were made is not given here.

The target in the assay is Estrogen receptor (Homo sapiens) (UniProt P03372). As to the kind of experiment: blockers of coactivator recruitment to ERα – biochemical, LOPAC library, TR-FRET, primary screen (AID 694).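 Further: receptor was agonist-bound with estradiol present during the assay.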 The settings on record: TR-FRET ERalpha-coactivator peptide binding, at 45 µM, active compounds read high. For orientation: Time-resolved FRET reads energy transfer from a long-lived donor to a nearby acceptor.
One may read the inhibition as the drop in the measured response relative to a control, in per cent. As for `CN(C(=O)Cc1ccc(Cl)c(Cl)c1)[C@H]1CCCC[C@@H]1N1CCCC1`, the inhibition was inactive: -0.26% and inactive: 5.53%.

Consider `CN(C(=O)Cc1ccc(Cl)c(Cl)c1)[C@@H]1CCCC[C@@H]1N1CCCC1`, for which the inhibition was inactive: 2.59%.

In the case of `CN(C(=O)Cc1ccc(Cl)c(Cl)c1)[C@@H]1CC[C@]2(CCCO2)C[C@H]1N1CCCC1`, the inhibition is inactive: -4.69%.

For `CN(C(=O)Cc1ccccc1)[C@@H]1CC[C@]2(CCCO2)C[C@H]1N1CCCC1`, the inhibition is inactive: -3.64%.

With `CN(C(=O)Cc1ccc(Cl)c(Cl)c1)[C@@H]1CCCC[C@H]1N1CCCC1`, the inhibition was inactive: 1.3%.

Take `CN(CCCl)Cc1cc(Cl)c(NC2=NCCN2)c(Cl)c1`: the inhibition was inactive: 13.6%.

`CC(Cc1ccc(O)cc1)NCC(O)c1cc(O)cc(O)c1` (configuration not stated): the inhibition is inactive: -4.18%.
